Here are results for 1 compound from ChEMBL document CHEMBL5154942, “Discovery of Clinical Candidate NTQ1062 as a Potent and Bioavailable Akt Inhibitor for the Treatment of Human Tumors” (J Med Chem, 2022).

Protein sequences, listed by entry. Tags and fused reporters are not part of them. Lines headed by an entry give the natural chain unless they say otherwise; changes in a name come on top.
UniProt P31749: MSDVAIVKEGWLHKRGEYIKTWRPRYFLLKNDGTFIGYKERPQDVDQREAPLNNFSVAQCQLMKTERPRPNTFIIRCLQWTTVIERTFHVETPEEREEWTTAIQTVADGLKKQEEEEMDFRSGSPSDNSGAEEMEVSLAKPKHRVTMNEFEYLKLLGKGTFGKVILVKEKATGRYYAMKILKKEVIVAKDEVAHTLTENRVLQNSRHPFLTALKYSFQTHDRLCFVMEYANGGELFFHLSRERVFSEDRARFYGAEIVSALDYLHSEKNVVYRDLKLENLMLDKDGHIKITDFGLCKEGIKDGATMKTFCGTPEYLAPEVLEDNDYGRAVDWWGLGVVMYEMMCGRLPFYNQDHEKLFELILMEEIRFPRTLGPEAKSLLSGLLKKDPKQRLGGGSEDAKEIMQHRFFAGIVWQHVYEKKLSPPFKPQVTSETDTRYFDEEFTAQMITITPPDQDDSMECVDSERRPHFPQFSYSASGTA

SMILES strings stand for the structures. pIC50: −log10 of the molar value.

This experiment addresses RAC-alpha serine/threonine-protein kinase (Homo sapiens, UniProt P31749). The experiment in a line: Inhibition of recombinant AKT1 (104 to 480 end residues) (unknown origin) catalytic domain expressed in Sf21 cells using peptide substrate incubated for 1 hr in presence of ATP by caliper off-chip mobility shift assay.

Consider `C[C@@H]1CC(=O)Nc2ncnc(N3CCN(C(=O)[C@H](CNC4CC4)c4ccc(Cl)cc4)[C@@H]4C[C@@H]43)c21`, for which the negative-log IC50 (pIC50) is 9.15.

In general, pIC50 refers to the negative decadic logarithm of the IC50, by convention in mol/L.
